# The entries are a selection whose mix differs from that of the whole data set. Activity calls are given as the source filed them.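 The calls were made as follows: active = inhibition above 30% in each of the two pooled mixtures holding the compound, so the lower value exceeds 30%; inactive = the rest.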
# Experiment: alternative complement pathway inhibitors, primary screen, biochemical, ELISA, human serum, orthogonally pooled compounds (AID 1235);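 also: 0% = serum in Mg-EGTA without compound and 100% = EDTA serum blank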
# Details: LPS-coated ELISA, C3 deposition, tested in compound mixtures, at 5 µM, active compounds read high
# Outline: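 Test system – human serum alternative complement pathway, C3 deposition on LPS-coated wells · Buffer or medium – diluted human serum in Mg2+-EGTA GVB++ · Compound dosing – 5 µM each compound, pools of ten, 50 µM per pool · Schedule – 1 h serum-compound exposure at 37 °C · Measured by – Anti-C3 ELISA, OD 450 nm · Read-out basis – percent inhibition of C3 deposition onto LPS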
row,Structure (SMILES),inhibition
1,COC(=O)c1cc2c(s1)N=C(c1ccccc1)N(C)P2(=O)N1CCOCC1 (stereo not given),inactive: 13.2%
2,O=P1(Nc2nc3ccc(Cl)cc3s2)COc2ccccc2O1 (stereo not given),inactive: 0.655%
3,O=P(Nc1nccs1)(c1ccccc1)c1ccccc1,inactive: -5.88%
4,c1nnnn1CCn1cnnn1,inactive: -18.9%
5,O=C(OC1CN2CCC1CC2)c1cccc(Cl)c1 (stereo not given),inactive: 10.8%
6,CCc1nc2c(n1)c1c(non1O)c1c2no[n+]1[O-],inactive: 10.8%
7,Cc1c2non([O-])c-2c(C)[n+](=O)[n+]1[O-],inactive: -4.97%
8,O=C(OC1CN2CCC1CC2)C12CC3CC(CC(C3)C1)C2 (stereo not given),inactive: 18.1%
9,COP1(=S)c2c(C)nn(CCC#N)c2N=C(c2ccc(F)cc2)N1C (stereo not given),inactive: 15.9%
10,O=C(COc1ccccc1)OC1CN2CCC1CC2 (stereo not given),inactive: 5.42%
11,O=P1(Nc2ncccn2)COc2ccccc2OC1,inactive: 0.985%
12,O=P1(Nc2ccc(Br)cn2)COc2ccccc2OC1,inactive: -3.48%
13,Cc1ccc(OCC(=O)OC2CN3CCC2CC3)cc1 (stereo not given),inactive: -14.2%
14,Cc1nn(-c2ccccc2)c2c1P(=O)(N1CCOCC1)N(C)C(c1ccccc1)=N2 (stereo not given),inactive: -16.6%
15,O=P1(Nc2ccccn2)COc2ccccc2OC1,inactive: 4.88%
16,Clc1n[nH]nc1-c1nn[nH][15n]1,inactive: 14%
17,Cc1cccc(OCC(=O)OC2CN3CCC2CC3)c1 (stereo not given),inactive: -4.33%
18,CCOP1(=S)c2c(C)nn(CCC#N)c2N=C(c2ccc(F)cc2)N1C (stereo not given),inactive: -1.84%
19,CCOP1(=S)c2c(C)nn(CCC#N)c2N=C(c2ccccc2F)N1C (stereo not given),inactive: -3.95%
20,O=P(Nc1nccs1)(c1ccccc1)c1nc2ccccc2s1 (stereo not given),inactive: 6.21%
